We go through one compound from article PMC11440508.

Amino acid sequences for entries named in this document (tags omitted).
UniProt P30989, whole entry: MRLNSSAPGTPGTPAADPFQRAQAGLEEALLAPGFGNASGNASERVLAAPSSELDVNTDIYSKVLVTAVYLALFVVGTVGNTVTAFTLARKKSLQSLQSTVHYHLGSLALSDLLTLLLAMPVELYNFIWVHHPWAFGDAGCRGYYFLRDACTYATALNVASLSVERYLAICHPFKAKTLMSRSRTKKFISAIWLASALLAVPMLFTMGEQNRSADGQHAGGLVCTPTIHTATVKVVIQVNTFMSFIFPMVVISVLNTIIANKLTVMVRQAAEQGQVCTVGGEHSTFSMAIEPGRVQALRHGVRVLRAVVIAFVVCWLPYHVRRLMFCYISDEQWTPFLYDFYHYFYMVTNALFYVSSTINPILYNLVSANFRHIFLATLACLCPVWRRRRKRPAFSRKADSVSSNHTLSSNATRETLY

Data set [1] is described as follows: Radiochemical purity after storage (RP-HPLC). To be noted: stock solution, degradation by radiolysis, tested form: TFA.
Data set [2] concerns the target T1, NTS1R (Homo sapiens, UniProt P30989). The data set is described as follows: Radiochemical saturation binding, adherent CHO-hNTS1R cells. To be noted: 23 °C, tested form: TFA.
The target in data set [3] is T1, NTS1R. Description: Radiochemical saturation binding, suspended CHO-hNTS1R cells. Particulars: suspension, 23 °C, tested form: TFA.
In data set [4] the target is T1, NTS1R. The data set is described as follows: Radiochemical association and dissociation kinetics, suspended CHO-hNTS1R cells.
The target of data set [5] is T1, NTS1R. The data set is described as follows: Radiochemical association and dissociation kinetics, adherent CHO-hNTS1R cells.
For data set [6], the target named is T1, NTS1R. Description: Radiochemical saturation binding, adherent HT-29 cells. To be noted: 23 °C, tested form: TFA.
[7] abbreviates: suspended cells, tested form: TFA.
Setting [8] is: adherent cells, tested form: TFA.

On to `[3H]CC([3H])C(=O)NCCCCNC(=O)NC(=N)NCCC[C@H](NC(=O)[C@@H]1CCCN1C(=O)[C@@H](NC(=O)CCc1cn(CCCNC(=O)CCC#Cc2ccc3c(c2)C(C)(C)C2=C4C=C5C6=[N+](CCC5OC4CCN23)c2ccc(S(=O)(=O)[O-])cc2C6(C)C)nn1)C1CCNCC1)C(=O)N[C@@H](CCCNC(=N)N)C(=O)N1CCC[C@H]1C(=O)N[C@H](C(=O)N[C@H](C(=O)N[C@@H](CC(C)C)C(=O)O)[C@@H](C)CC)C(C)(C)c1ccc(O)cc1` (stereo partly drawn), for which the “Radiochemical purity 11 months after synthesis” value in data set [1] was 80%. In addition, the Kd in data set [2] was determined as 1.1 nM; in data set [3], 1.2 nM; in data set [4] (read-out: Kd(kin), suspended CHO-hNTS1R cells, koff/kon(fast), tested form: TFA), 0.31 nM; in data set [5] (read-out: Kd(kin), adherent CHO-hNTS1R cells, koff/kon(fast), tested form: TFA), 0.26 nM; in data set [6], 1.9 nM. Also, the “koff [min^–1]” value in data set [4] (suspended CHO-hNTS1R cells (50 mL falcon tubes), 23 °C, tested form: TFA) came out at 0.030 ± 0.004 min^–1; in data set [5] (adherent CHO-hNTS1R cells, 23 °C, tested form: TFA), 0.026 ± 0.007 min^–1. For the same compound, the “kobs(slow) [min^–1]” value in data set [4] (suspended CHO-hNTS1R cells, biphasic exponential fit, tested form: TFA) is 0.006 ± 0.002 ^b min^–1; in data set [5] (adherent CHO-hNTS1R cells, biphasic exponential fit, tested form: TFA), 0.013 ± 0.002 ^b min^–1. Further, the “kon(fast) [min^–1 nM^–1]” value is listed as 0.097 ± 0.13 ^c min^–1 nM^–1 in data set [4] (suspended CHO-hNTS1R cells, calculated from koff, kobs(fast) and ligand concentration, tested form: TFA); 0.10 ± 0.04 ^c min^–1 nM^–1 in data set [5] (adherent CHO-hNTS1R cells, calculated from koff, kobs(fast) and ligand concentration, tested form: TFA). Besides, the “kobs(fast) [min^–1]” value in data set [4] (suspended CHO-hNTS1R cells, monophasic fit of initial association phase, 1.8 nM [^3H]13 or 1.2 nM [^3H]18, tested form: TFA) is 0.15 ± 0.03 ^a min^–1; in data set [5] (adherent CHO-hNTS1R cells, monophasic fit of initial association phase, 1.3 nM [^3H]13 or 1.1 nM [^3H]18, tested form: TFA), 0.14 ± 0.03 ^a min^–1. Further, the “Proportion of fast kinetic component (association)” value was 19% in data set [4] (setting [7]) and 16% in data set [5] (setting [8]). In addition, the “Proportion of slow kinetic component (association)” value in data set [4] (setting [7]) was 81%; in data set [5] (setting [8]), 84%.
